Yeast mating assay B: variants of the scFv Ab-14

Antigen: PDVDLGDISGINAS, a 14-residue peptide of the SARS-CoV-2 spike HR2 region.

Ab-14 is the parent antibody, in scFv form: VH, then the linker GGGGSGGGGSGGGGS, then VL. The heavy chain is unchanged in all variants.
VH: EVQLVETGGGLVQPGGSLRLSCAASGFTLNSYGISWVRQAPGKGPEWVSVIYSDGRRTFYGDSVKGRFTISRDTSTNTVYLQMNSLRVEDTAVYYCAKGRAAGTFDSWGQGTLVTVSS
VL: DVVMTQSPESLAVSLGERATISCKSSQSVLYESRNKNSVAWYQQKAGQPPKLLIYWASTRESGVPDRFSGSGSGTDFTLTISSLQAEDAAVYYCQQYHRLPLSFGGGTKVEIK

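The parent was found by panning a naive human phage display library on the peptide. Designed CDR sequences, proposed from the first random library and measured here. Their group label is 14L_GP_Gen (GP: Gaussian process model; Gen: genetic algorithm; a sequence that several methods proposed may carry one label only). The scFvs were displayed on barcoded MATa yeast, the peptide on MATalpha yeast. Mating (16 h, 30 °C) was followed by selection of diploids and sequencing of their barcodes. Read counts were normalised to the haploid input and turned into Kd by a linear fit to BCL2-family pairs of known affinity, for each replicate. Mating was done six times.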

Each variant is given by its three light chain CDRs, as the data file delimits them; those of the parent are KSSQSVLYESRNKNSVA, WASTRES, QQYHRLPLS. Values are log10 of the apparent Kd in nM; lower means stronger binding. Values of this round are not directly comparable with the first-round values of the same sequences.

CDR-L1	CDR-L2	CDR-L3	log10 Kd, replicates	empty controls
KMPQSVLYESRNKNSVA	NASQRES	QQYHRLPLS	-0.18 0.04 -0.17 -0.42 -0.13 -0.13	3 of 18 (2.31)
KLSQSKLYESRNKNSVA	NASTREM	QQYHRLPLS	0.00 0.38 0.07 -0.17 0.27 0.16	0 of 18
KVYQSDLYESRNKNSVA	NASTRES	QQYHRLPLS	0.38 0.18 0.09 0.00 0.07 0.21	1 of 18 (3.56)
KLSQSVMYESRNKNSVA	QASTRES	QQYHRLPLS	1.04 0.19 0.57 0.30 0.56 0.66	0 of 18
KLSWSMLYESRNKNSVA	NASQRES	QQYHRLPLS	0.22 0.11 0.17 0.06 0.22 0.09	0 of 18
KLSQSFLYESRNKNSVA	HASTRES	QQYHRLPLS	-0.14 0.09 0.03 -0.11 -0.09 0.06	2 of 18 (2.04)
KLQQSVPYESRNKNSVA	NASTRES	QQYHRLPLS	-0.25 0.29 0.07 -0.04 -0.47 -0.04	0 of 18
KLSQSVLYGSRNKNSVA	NASQRES	QQYHRLPLS	-0.20 -0.41 -0.27 -0.42 -0.72 -0.44	0 of 18
KLSQSKLYESRNKNSVA	NASTRES	QDYHRLPLS	0.20 0.07 0.00 -0.13 0.24 0.12	1 of 18 (2.03)
KLQQSVLYESRNKNSVA	NASTRLD	QQYHRLPLS	0.31 -0.01 -0.16 -0.16 -0.30 0.38	3 of 18 (2.72)
KVSQSVLYESRNKNAVA	EASTRES	QQYHRLPLS	-0.33 -0.37 -0.45 -0.78 -0.58 -0.21	0 of 18
KVSQSVLYESRNKNSVA	EASTRES	QQYHRLPLI	0.14 0.12 0.34 -0.26 -0.54 -0.26	0 of 18
KLSQSVLYESRNKNSVA	NASTRCK	QQYHRLPLS	0.15 0.10 -0.13 -0.01 0.46 0.20	1 of 18 (5.12)
KVSQSQLYESRNKNSVA	NASTRLS	QQYHRLPLS	-0.08 0.01 -0.07 -0.22 -0.20 0.07	1 of 18 (2.66)
KLQQSMLYESRNKNSVA	NASTRMS	QQYHRLPLS	-0.03 -0.22 -0.43 -0.27 -0.38 -0.16	2 of 18 (2.28)
KLSQSVLYESRNKNNVA	HASTRES	QQYHRLPLS	0.22 0.24 -0.09 0.01 0.30 0.28	0 of 18
KVSQSDLYESRNKNSVA	GASTRES	QQYHRLPLS	-0.14 -0.37 -0.52 -0.53 -0.59 -0.38	0 of 18
KLSQSMLYESRNSNSVA	DASTRES	QQYHRLPLS	-0.31 -0.39 -0.52 -0.48 -0.24 -0.30	2 of 18 (2.23)
KLPQSHLYESRNKNSVA	DASTRES	QQYHRLPLS	-0.08 -0.03 -0.30 -0.37 -0.48 -0.04	1 of 18 (2.82)
KLSQSVLYESRNKNNVA	GASTRLS	QQYHRLPLS	-0.38 -0.35 -0.34 -0.62 -0.59 -0.27	0 of 18
KISQSVLYESRNKNSVA	NASQRES	QQYHRLPLS	-0.12 -0.11 -0.27 -0.22 -0.37 -0.03	1 of 18 (1.25)
KLSQSVLYESMNKNSVA	NASQRES	QQYHRLPLS	0.77 0.45 0.44 0.20 0.29 0.51	1 of 18 (2.31)
KFSQSVLYESRQKNSVA	NASQRES	QQYHRLPLS	0.51 -0.13 0.41 0.14 0.00 0.21	0 of 18
KLSQSFLYESRNKNSVA	NASTRLS	QQYHRLPLS	-0.31 -0.18 -0.21 -0.29 -0.21 0.06	0 of 18
KLKQSVLYESRNKNSVA	NASTRMS	QQYHRLPLS	-0.21 -0.20 -0.49 -0.53 -0.47 -0.11	2 of 18 (2.41)
KMSQSELYESRNKNSVA	NASTRES	QQYHRLPLS	0.02 0.22 0.27 -0.06 -0.01 0.10	2 of 18 (3.62)
KVSPSELYESRNKNSVA	EASQRES	QQYHRLPLS	0.17 0.19 0.20 0.21 0.32 0.26	0 of 18
KLSQSRLYESRNKNSVA	NASQRES	QQYHRLPLS	0.01 -0.25 -0.01 -0.26 -0.27 0.16	1 of 18 (1.37)
KLQQSVLYESRNPNSVA	NASTRLS	QQYHRLPLS	0.02 0.02 -0.08 -0.25 -0.08 0.12	3 of 18 (3.23)
KLYQSVWYESRNKNSVA	NASTRES	QQYHRLPLS	0.03 -0.33 0.01 -0.38 -0.36 -0.06	0 of 18
KVSQSQLYESRMKNSVA	NASTRES	QQYHRLPLS	0.69 0.50 0.74 1.07 0.61 0.78	0 of 18
KLSQSQLYESRNKNSVA	NASTRES	QDYHRLPLS	0.04 -0.24 -0.23 -0.19 0.02 0.20	0 of 18
KLSQSDLYESRNKNSVA	NASTRSS	QQYHRLPLS	0.40 0.07 0.25 0.41 -0.05 0.21	1 of 18 (2.94)
KLSQSVLMQSRNKNSVA	EASTRES	QQYHRLPLS	-0.18 -0.23 -0.32 -0.36 -0.25 -0.10	0 of 18
KVSQSWLYESRNKNSVA	NASYRES	QQYHRLPLS	-0.78 -0.82 -0.83 -1.00 -0.79 -0.71	0 of 18
KLSESELYESRNKNSVA	HASTRES	QQYHRLPLS	0.37 0.65 0.15 0.07 0.30 0.31	1 of 18 (3.11)
KLSQSDLYESRNKNQVA	GASTRES	QQYHRLPLS	0.44 -0.02 0.12 -0.02 -0.09 -0.02	0 of 18

Excerpt, the first 3 entries:

{"CDR-L1": "KMPQSVLYESRNKNSVA", "CDR-L2": "NASQRES", "CDR-L3": "QQYHRLPLS", "log10 Kd, replicates": "-0.18 0.04 -0.17 -0.42 -0.13 -0.13", "empty controls": "3 of 18 (2.31)"}
{"CDR-L1": "KLSQSKLYESRNKNSVA", "CDR-L2": "NASTREM", "CDR-L3": "QQYHRLPLS", "log10 Kd, replicates": "0.00 0.38 0.07 -0.17 0.27 0.16", "empty controls": "0 of 18"}
{"CDR-L1": "KVYQSDLYESRNKNSVA", "CDR-L2": "NASTRES", "CDR-L3": "QQYHRLPLS", "log10 Kd, replicates": "0.38 0.18 0.09 0.00 0.07 0.21", "empty controls": "1 of 18 (3.56)"}

In the paper, a design with two or fewer of six values counts as a poor binder. As a blank, each scFv also met three strains without target: over all light chain designs, 4% of these pairings were detected, typically at 2.64 and seldom below 1.59. Also given: how often the same scFv was detected with the empty control strains, with their mean in brackets.

Source: Li et al. 2023 (doi:10.1038/s41467-023-39022-2), MIT Lincoln Laboratory and A-Alpha Bio; data file from the FLAb repository.